# Legend:
# Sarcoma-180 (S-180) = test: Effect on growth of solid tumor by oral administration, S-180; type: in vivo, mice (ICR/JCL, female); settings: S-180 solid tumor
# Method: (3) Effect on growth of solid tumor by oral administration
# 1.8 × 10^6 cells of S-180 were implanted subcutaneously in ICR/JCL mice (female, 6-8 weeks old).
# Each of the drugs was orally administered as a solution of safflower oil 3 hours after the implantation.
# Safflower oil was administered as control for each of the drugs.
# Twenty days after, the tumor weight was measured, and the ratio of the tumor weight to that of the control group (T/C %) was calculated.
# in vivo = settings: mouse
smiles,measurement,setting,value
O=c1[nH]c(=O)n(C2CCCO2)cc1F (centres unmarked) [FT-207],ratio of the minimum effective dose to toxic dose (LD50),Sarcoma-180 (S-180),about 1/10
same,LD50 at 504 h,in vivo; ip,800 mg/kg
same,LD50 at 504 h,in vivo; iv,750 mg/kg
same,LD50 at 504 h,in vivo; po,930 mg/kg
same,LD50 at 504 h,in vivo; sc,830 mg/kg

# Source: patent publication US4130648A, “5-Fluorouracil derivatives and antitumor preparations containing the same” (Eisai Co., Ltd., priority 1976, dated 1978)
